From PMC3931943, “Extraction of tamoxifen and its metabolites from formalin-fixed, paraffin-embedded tissues: an innovative quantitation method using liquid chromatography and tandem mass spectrometry” (Cancer Chemotherapy and Pharmacology, 2014)

Conditions: human, in vivo

In the case of 4-hydroxy-tamoxifen [4-OH], the “Detection in FFPE tissue of tumor recurrent patients” value is reported as “not found”.
